From US7332495B2 (priority 2002, dated 2008)

Tested on: rats
Assay: Drug discrimination experiment in rats
Conditions: 0.1 mg/kg, 1.0 mg/kg, substitution for morphine 4 mg/kg

SMILES: Nc1ccc(CN2CCN(CC(=O)c3ccccc3)CC2)cc1 [IV-12, N^1-(4-aminobenzyl)-N^4-phenacyl piperazine]
- Discriminating effect: does not have obvious discriminating effect
